According to patent publication US20260240823A1:
pIC50: −log10 of the molar value.

Experiments:
[1] = system: 4T1 mouse triple negative breast cancer cell line; experiment: In vitro cell viability; details: 4T1, 72 hours of exposure
Method: FIG. 8: inhibition of cell viability of the 4T1 mouse triple negative breast cancer cells by in vitro PF-05175157. The bar graphs depict cell viability normalized to vehicle (DMSO) exposure at different PF-05175157 concentrations and cell seeding densities. OMA (oligomycin) is positive control and the error bars show 95% confidence intervals around mean values of the data. Numbers in the table show % viability under different conditions.
The efficacy of PF-05175157 was also assessed using a 4T1 mouse triple negative breast cancer cell line in vitro. Significant dose dependent inhibition was observed after 72 hours of exposure (FIG. 8).

[2] = system: 15 breast cancer cell lines; experiment: In vitro cell viability assay (CellTitre-Glo), panel; details: 10 μg/mL
[3] = system: trastuzumab and pertuzumab resistant cells (BT-TPR1, BT-TPR2); experiment: In vitro cell viability; details: HER2-targeted therapy resistant BT474 clones, 72-hour exposure
4 myeloma cell lines = experiment: In vitro cell viability; details: all 4 myeloma models, 72 hour exposure
parental BT474 cells = experiment: In vitro cell viability; details: parental BT474, 72-hour exposure
HCC1419 = experiment: High throughput in vitro cell line screen; details: HCC1419, Breast
Method: (§1) A high throughput in vitro cell line screen including over 500 human cancer cell lines was performed to assess singe agent PF-05175157 activity beyond breast cancer cells. Cell lines with calculated IC50 less than 10 μM (~4 μg/mL) are provided herein. The results are consistent with reports in the literature that ACC inhibition impairs cell viability in a broad range of cancers.

CAMA-1 = experiment: High throughput in vitro cell line screen; details: CAMA-1, Breast
Method: as §1

RPMI-8226 = experiment: High throughput in vitro cell line screen; details: RPMI-8226, Myeloma
Method: as §1

KMS-12BM = experiment: High throughput in vitro cell line screen; details: Myeloma
Method: as §1

OVK-18 = experiment: High throughput in vitro cell line screen; details: OVK-18, Ovarian
Method: as §1

MM.1R = experiment: High throughput in vitro cell line screen; details: Myeloma
Method: as §1

KMS-34 = experiment: High throughput in vitro cell line screen; details: KMS-34, Myeloma
Method: as §1

EN = experiment: High throughput in vitro cell line screen; details: Endometrial
Method: as §1

KASUMI-1 = experiment: High throughput in vitro cell line screen; details: KASUMI-1, AML
Method: as §1

H1563 = experiment: High throughput in vitro cell line screen; details: H1563, Lung
Method: as §1

JHH-4 = experiment: High throughput in vitro cell line screen; details: JHH-4, Liver
Method: as §1

A 498 = experiment: High throughput in vitro cell line screen; details: A 498, Kidney
Method: as §1

KMS-27 = experiment: High throughput in vitro cell line screen; details: KMS-27, Myeloma
Method: as §1

KMS-20 = experiment: High throughput in vitro cell line screen; details: KMS-20, Myeloma
Method: as §1

NCI-H929 = experiment: High throughput in vitro cell line screen; details: NCI-H929, Myeloma
Method: as §1

PLC/PRF5 = experiment: High throughput in vitro cell line screen; details: PLC/PRF5, Liver
Method: as §1

S34 = experiment: High throughput in vitro cell line screen; details: S34, Sarcoma
Method: as §1

HI1944 = experiment: High throughput in vitro cell line screen; details: HI1944, Lung
Method: as §1

H2342 = experiment: High throughput in vitro cell line screen; details: H2342, Lung
Method: as §1

T-47D = experiment: High throughput in vitro cell line screen; details: Breast
Method: as §1

JIMT-1 = experiment: High throughput in vitro cell line screen; details: JIMT-1, Breast
Method: as §1

U266B1 = experiment: High throughput in vitro cell line screen; details: U266B1, Myeloma
Method: as §1

MOLP-8 = experiment: High throughput in vitro cell line screen; details: MOLP-8, Myeloma
Method: as §1

BIRCH = experiment: High throughput in vitro cell line screen; details: Sarcoma
Method: as §1

H661 = experiment: High throughput in vitro cell line screen; details: H661, Lung
Method: as §1

LP-1 = experiment: High throughput in vitro cell line screen; details: LP-1, Myeloma
Method: as §1

MDAMB468 xenograft = experiment: Mouse cell line-derived xenograft (CDX) model
[4] = system: HC1500 human estrogen receptor positive breast cancer cell line xenografts; experiment: Mouse cell line-derived xenograft (CDX) model; details: HC 1500 xenograft, 320 mg/kg intraperitoneally daily x 5 days followed by 2 days off
BT549 = experiment: In vitro cell viability assay (CellTitre-Glo); details: BT549, 72 h exposure
[5] = system: normal breast epithelial (HMEC) cells; experiment: In vitro cell viability assay (CellTitre-Glo); details: HMEC normal mammary epithelial cells
T47D = experiment: In vitro cell viability assay (CellTitre-Glo); details: 72 h exposure

Cc1nc2ccc(C(=O)N3CCC4(CC3)CC(=O)c3c(cnn3C(C)C)C4)cc2[nH]1
inhibition of cell viability [1]: Significant dose dependent inhibition | inhibition of cell viability / growth in breast cancer cell lines [2]: significantly inhibited cell viability in all but 1 of the cell lines | inhibition of cell viability / growth in breast cancer cell lines ([2]; listed as PF05175157): time and dose dependent growth inhibition in all but 1 of the 15 cancer cell lines | in vitro growth inhibition [3]: Significant in vitro growth inhibition | inhibition of cell viability (4 myeloma cell lines): dose-dependent inhibition | in vitro growth inhibition (parental BT474 cells): Significant in vitro growth inhibition | pIC50 (HCC1419): 5.32 | pIC50 (CAMA-1): 5.32 | pIC50 (RPMI-8226): 5.37 | pIC50 (KMS-12BM): 8.49 | pIC50 (OVK-18): 5.01 | pIC50 (MM.1R): 5.03 | pIC50 (KMS-34): 8.49 | pIC50 (EN): 5.81 | pIC50 (KASUMI-1): 8.49 | pIC50 (H1563): 5.11 | pIC50 (JHH-4): 5.00 | pIC50 (A 498): 8.49 | pIC50 (KMS-27): 6.34 | pIC50 (KMS-20): 8.49 | pIC50 (NCI-H929): 8.49 | pIC50 (PLC/PRF5): 5.40 | pIC50 (S34): 8.49 | pIC50 (HI1944): 5.59 | pIC50 (H2342): 5.14 | pIC50 (T-47D): 5.17 | pIC50 (JIMT-1): 6.32 | pIC50 (U266B1): 5.07 | pIC50 (MOLP-8): 8.49 | pIC50 (BIRCH): 5.00 | pIC50 (H661): 5.03 | pIC50 (LP-1): 5.69 | single agent growth inhibition (MDAMB468 xenograft; MDA-MB-468 xenografts, 80 mg/kg and 320 mg/kg intraperitoneally once daily): dose dependent single agent growth inhibition | effect on efficacy of low dose doxorubicin (combination) (MDAMB468 xenograft; MDA-MB-468 xenografts, intraperitoneal PF-05175157 with doxorubicin): increased the efficacy | effect on efficacy of low dose vinorelbine (combination) (MDAMB468 xenograft; MDA-MB-468 xenografts, intraperitoneal PF-05175157 with vinorelbine): increased the efficacy | tumor growth compared to control (MDAMB468 xenograft; MDAMB468 xenograft, intraperitoneally 20 mg/kg in DMSO): suppressed tumor growth | median tumor volume after 40 days (MDAMB468 xenograft; MDAMB468 xenograft, intraperitoneally 20 mg/kg in DMSO, 303.3 mm^3 in DMSO-treated mice): 244.5 mm^3 | tumor growth compared to control (MDAMB468 xenograft; MDAMB468 xenograft, intraperitoneally 20 mg/kg in DMSO, listed as PF05175157): significantly delayed tumor growth | single agent growth inhibition [4]: Significant single agent growth inhibition | estimated EC50, cell viability (BT549): 66.9 µg/mL | estimated EC50, cell viability (BT549; listed as PF05175157): 76 µg/mL | inhibitory effect on HMEC cells [5]: no significant inhibitory effect | estimated EC50, cell viability (T47D): 0.96 µg/mL | estimated EC50, cell viability (T47D; listed as PF05175157): 0.95 µg/mL
